PMC10688980, “Hepatitis B virus infection disrupts homologous recombination in hepatocellular carcinoma by stabilizing resection inhibitor ADRM1” (The Journal of Clinical Investigation, 2023)

Target: T1, 6xHis-WDR70 (112–654 aa) (UniProt Q9NW82 112-654)
T1 construct: also called recombinant WDR70; purified WDR70
T1 sequence (looked up): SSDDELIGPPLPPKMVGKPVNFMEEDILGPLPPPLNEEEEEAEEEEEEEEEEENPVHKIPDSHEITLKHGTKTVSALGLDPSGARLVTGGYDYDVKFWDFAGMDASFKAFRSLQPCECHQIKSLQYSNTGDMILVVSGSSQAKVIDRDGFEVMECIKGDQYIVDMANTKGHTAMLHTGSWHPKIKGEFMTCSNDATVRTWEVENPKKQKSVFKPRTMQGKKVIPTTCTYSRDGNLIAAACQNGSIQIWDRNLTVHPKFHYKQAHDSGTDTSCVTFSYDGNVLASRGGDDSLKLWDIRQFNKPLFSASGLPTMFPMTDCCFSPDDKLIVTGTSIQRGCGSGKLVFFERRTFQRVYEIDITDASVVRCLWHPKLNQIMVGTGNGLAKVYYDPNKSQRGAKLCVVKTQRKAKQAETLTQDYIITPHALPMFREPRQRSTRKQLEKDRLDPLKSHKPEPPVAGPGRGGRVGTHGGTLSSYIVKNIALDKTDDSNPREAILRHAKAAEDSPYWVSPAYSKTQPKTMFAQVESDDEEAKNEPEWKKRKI
Assay: pull-down; purified recombinant His-WDR70 and Strep-PSMD5
Conditions: both partners purified

binding result: binds
B1: Strep-PSMD5^Hsm3 (recombinant) (natural protein, UniProt Q16401 1-504, looked up)
chain: MAAQALALLREVARLEAPLEELRALHSVLQAVPLNELRQQAAELRLGPLFSLLNENHREKTTLCVSILERLLQAMEPVHVARNLRVDLQRGLIHPDDSVKILTLSQIGRIVENSDAVTEILNNAELLKQIVYCIGGENLSVAKAAIKSLSRISLTQAGLEALFESNLLDDLKSVMKTNDIVRYRVYELIIEISSVSPESLNYCTTSGLVTQLLRELTGEDVLVRATCIEMVTSLAYTHHGRQYLAQEGVIDQISNIIVGADSDPFSSFYLPGFVKFFGNLAVMDSPQQICERYPIFVEKVFEMIESQDPTMIGVAVDTVGILGSNVEGKQVLQKTGTRFERLLMRIGHQSKNAPVELKIRCLDAISSLLYLPPEQQTDDLLRMTESWFSSLSRDPLELFRGISSQPFPELHCAALKVFTAIANQPWAQKLMFNSPGFVEYVVDRSVEHDKASKDAKYELVKALANSKTIAEIFGNPNYLRLRTYLSEGPYYVKPVSTTAVEGAE
notes: also called recombinant PSMD5^Hsm3; His-PSMD5^Hsm3; source: E. coli BL21, purified (MagStrep XT beads, eluted with biotin)
